Measured values from ChEMBL document CHEMBL6177960, “Rational design, optimization, and biological evaluation of novel pyrrolo-pyridone derivatives as potent and orally active Cbl-b inhibitors” (Eur J Med Chem, 2025).

Sequences of proteins named here, by UniProt entry; tags and fusion partners are left off.
UniProt Q13191, whole entry: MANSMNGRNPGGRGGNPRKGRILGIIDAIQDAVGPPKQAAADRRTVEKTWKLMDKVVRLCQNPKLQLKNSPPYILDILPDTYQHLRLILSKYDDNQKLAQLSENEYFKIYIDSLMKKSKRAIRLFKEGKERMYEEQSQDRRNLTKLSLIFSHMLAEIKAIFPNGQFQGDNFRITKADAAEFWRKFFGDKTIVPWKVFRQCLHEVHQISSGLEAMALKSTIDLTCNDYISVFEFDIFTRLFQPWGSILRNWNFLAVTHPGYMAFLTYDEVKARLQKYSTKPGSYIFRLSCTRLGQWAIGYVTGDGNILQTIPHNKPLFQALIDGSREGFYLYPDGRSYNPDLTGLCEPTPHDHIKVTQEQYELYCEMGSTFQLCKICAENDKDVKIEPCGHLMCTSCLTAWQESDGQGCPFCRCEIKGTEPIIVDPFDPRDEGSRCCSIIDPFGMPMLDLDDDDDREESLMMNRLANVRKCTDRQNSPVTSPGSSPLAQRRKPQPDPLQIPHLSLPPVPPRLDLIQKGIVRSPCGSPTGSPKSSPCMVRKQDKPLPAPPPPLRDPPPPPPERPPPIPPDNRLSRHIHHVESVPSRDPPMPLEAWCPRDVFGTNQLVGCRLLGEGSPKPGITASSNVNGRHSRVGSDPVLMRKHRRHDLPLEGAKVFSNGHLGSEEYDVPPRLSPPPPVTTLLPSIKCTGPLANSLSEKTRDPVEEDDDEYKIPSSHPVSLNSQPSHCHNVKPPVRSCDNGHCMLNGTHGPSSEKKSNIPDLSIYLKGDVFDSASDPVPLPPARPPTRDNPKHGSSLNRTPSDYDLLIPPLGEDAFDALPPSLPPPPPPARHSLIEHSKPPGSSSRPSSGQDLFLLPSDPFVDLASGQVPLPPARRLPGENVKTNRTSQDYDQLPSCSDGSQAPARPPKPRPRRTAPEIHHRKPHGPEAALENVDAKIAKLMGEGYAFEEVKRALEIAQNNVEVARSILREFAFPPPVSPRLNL

Tests used:
[1] = biological target: T1, E3 ubiquitin-protein ligase CBL-B (Homo sapiens, UniProt Q13191); conditions: CD3-positive T cell, dose 3.2-10000 nM, time 75.0 min
[2] = biological target: T1, E3 ubiquitin-protein ligase CBL-B; conditions: CD3-positive T cell, dose 3.2-10000 nM, time 75.0 min; remark: listed apart in the source

**Q.** For `C[C@H]1CCCN(Cc2cc3c(C(F)(F)F)cn(-c4cccc([C@]5(c6nncn6C)C[C@@H](C)C5)c4)c(=O)c3[nH]2)C1`, which inhibition [1] is on record?
**A.** Its inhibition is “Dose-dependent-effect”.

**Q.** And the inhibition [2]?
**A.** Its inhibition is “Dose-dependent-effect”.
